Values quoted from earlier work in patent publication US4859671A, “2-substituted 1,2-benzisothiazol-3(2H)-one 1,1-dioxide useful as an anxiolytic agent” (American Home Products Corporation, priority 1988, dated 1989).

System: 5-HT1A receptors
Conditions: compared with buspirone; cited from earlier work

CC1(C)CC(=O)N(CCCCN2CCN(c3ncccn3)CC2)C(=O)C1 [Gepirone, 4,4-dimethyl-1-[4-[4-(2-pyrimidinyl)-1-piperazinyl]butyl]-2,6-piperidinedione]
selectivity for 5-HT1A receptors relative to buspirone (in words): higher degree of selectivity for 5-HT1A receptors than buspirone
